Laboratory results reported in patent publication US20070196278A1, “Compositions and methods for locating an internal bleeding site” (Cold Spring Diagnostics, Inc., priority 2004, published 2007).

Columns and labels:
[1] = tested on: sites of injury (gastrotomy, mucosal injury of the stomach); assay: Intraoperative thrombus detection with ^125I-FBG, counts at injured vs uninjured stomach tissue; format: in vivo, New Zealand White rabbits; details: 15 μCi/kg, N=3
Experimental: (§1) Anesthesia was induced with an intraperitoneal injection of pentobarbital (40 mg/kg) to mice and an intramuscular injection of ketamine (35 mg/kg) and xylazine (5 mg/kg) to rabbits. Pig anesthesia was induced with 4.4 mg/kg intramuscular Telazol (Fort Dodge Labs, Fort Dodge, Iowa), and anesthesia was maintained through a 7-mm endotracheal tube with 1.5% isoflurane/98.5% O2 at 5 L/min. After anesthesia, a laparotomy was made in the midline; the stomach and a loop of small intestine were externalized. A mesenteric vessel of the mice and pigs was lacerated and then permitted to clot, resulting in intramesenteric thrombus formation. For rabbits and pigs, a gastrotomy was made, and the posterior wall mucosa was pulled through. A 5-mm mucosectomy was performed with a scalpel. The injured area was allowed to clot and marked with a 4-0 silk suture for identification.
1.7 mg/kg FBG800 protein (10 nmol/kg of fluorophore) was injected intravenously in mice (N=4) and pigs (N=3). 15 μCi/kg was injected intravenously in rabbits (N=3). This dose is approximately 100 ng and is much less than the total fibrinogen in the rabbit. Injections occurred 30 minutes before or 30 minutes after injury as described below. For controls, the same dose of CW800-labeled human serum albumin (HSA800, N=3)^16 or radiolabeled albumin (^125I-HSA, N=3) was used.
After injection of FBG800, signal to background ratio (SBR) was measured by using as background the signal from an identically sized and shaped region of interest over adjacent mesenteric vessels or GI mucosa. After injection of ^125I-FBG, a standard Geiger counter was swept over the areas of injury to determine whether the site of injury could be recognized simply on the basis of meter readings. The entire stomach was then removed and opened. A portion of stomach away from both the gastrotomy site and the site area of mucosal injury was resected and used for background measurements. Next, the gastrotomy site was resected. Finally, the area of mucosal injury was recognized and resected. All tissues were weighed, placed in scintillation vials, and counted in a standard scintillation counter. Statistical comparisons were made with a Student t test.

[2] = tested on: sites of clot formation (mesenteric vessel injury, mucosal resection of the stomach); assay: Real-time intraoperative NIR fluorescence thrombus detection after mesenteric vessel injury and mucosal resection of the stomach; format: in vivo, Yorkshire pigs; details: 30-kg pigs; i.v. 30 minutes after injuries, no active bleeding
Experimental: as §1, with “For rabbits and pigs, a gastrotomy was made, and the posterior wall mucosa was pulled through. A 5-mm mucosectomy was performed with a scalpel. The injured area was allowed to clot and marked with a 4-0 silk suture for identification.” left out
(§2) The intraoperative NIR fluorescence imaging system optimized for animal surgery has been described previously in detail.^12 Briefly, it is composed of 2 wavelength-isolated excitation sources, one generating 0.5 mW/cm^2 of 400- to 700-nm “white” light and the other generating 5 mW/cm^2 of 725- to 775-nm light over a 15-cm diameter field of view. Simultaneous photon collection of color video and NIR fluorescence images is achieved with custom-designed optics that maintains separation of the white light and NIR fluorescence (>795 nm) channels. […]
(§3) After injection of FBG800, signal to background ratio (SBR) was measured by using as background the signal from an identically sized and shaped region of interest over adjacent mesenteric vessels or GI mucosa. […]

[3] = tested on: site of thrombus formation (mesenteric vessel injury); assay: Real-time intraoperative NIR fluorescence thrombus detection after mesenteric vessel injury; format: in vivo, CD-1 mice; details: mice; i.v. 30 minutes after mesenteric vessel injury; N=4
Experimental: as §1, with “For rabbits and pigs, a gastrotomy was made, and the posterior wall mucosa was pulled through. A 5-mm mucosectomy was performed with a scalpel. The injured area was allowed to clot and marked with a 4-0 silk suture for identification.” left out
as §2, §3

[4] = rabbits injected i.v. 30 minutes after gastrotomy
[5] = rabbits injected i.v. 30 minutes before gastrotomy, counted 3 hours after the injury

Substance | Ratio of the counts at the site of (mucosal) injury as compared to background, uninjured mucosa [1, 4] | Ratio of the counts at the site of the gastrotomy as compared to the uninjured mucosa [1, 4] | Ratio of the counts at the site of (mucosal) injury as compared to background, uninjured mucosa [1, 5] | Ratio of the counts at the site of the gastrotomy as compared to the uninjured mucosa [1, 5] | Accumulation at the sites of clot formation / injury [2] | Accumulation at the site of thrombus formation [3]
^125I-HSA: ^125I-radiolabeled human serum albumin, control, purchased from Amersham Biosciences | 1.2±0.1 | 1.0±0.4 | 1.7±1.0 | 1.0±0.7 | – | –
HSA800: CW800-labeled human serum albumin, control protein | – | – | – | – | no accumulation | no accumulation
